{"source": "patent US6599548B2", "about": "“Ambient stable beverage” (priority 2000, dated 2003)", "key": {"fungi": {"tested_on": "fungi", "assay": "Fungicidal activity of pasteurisation adjuncts at 50° C. versus 30° C. (MIC50)", "assay_type": "cell-based"}, "[1]": {"tested_on": "yeast Saccharomyces cerevisiae X2180-1B", "conditions": "RTD tea"}}, "note": "Like-named read-outs stand apart in the source and are kept apart here."}
{"smiles": "CCCCCCCCCCCC(=O)O", "note": "[Lauric acid]", "values": [{"measurement": "fungicidal activity at 30° C.", "setting": "fungi; 30° C.", "value": "no fungicidal activity"}, {"measurement": "fungicidal activity when heated to 50° C.", "setting": "fungi; 50° C.", "value": "significant fungicidal activity"}, {"measurement": "effect on yeast growth at low temperature", "setting": "[1]; 20° C., adjunct 0-12 ppm, cinnamic acid 0-60 ppm", "value": "little effect"}, {"measurement": "effect on yeast growth at low temperature", "setting": "[1]; FIGS. 23, 24, adjunct alone 0-200 ppm, low temperature", "value": "little effect"}, {"measurement": "prevention of yeast growth by low levels of the adjunct", "setting": "[1]; adjunct 0-12 ppm in combination with cinnamic acid 0-60 ppm", "value": "prevention of yeast growth"}]}
